Test results reported in patent US20030162727A1, “Use of cyp1b1inhibitors for treating cancer” (priority 2000, published 2003).

Target: T1, CYP1B1 (Homo sapiens, UniProt Q16678)
T1 sequence (Q16678 1-543): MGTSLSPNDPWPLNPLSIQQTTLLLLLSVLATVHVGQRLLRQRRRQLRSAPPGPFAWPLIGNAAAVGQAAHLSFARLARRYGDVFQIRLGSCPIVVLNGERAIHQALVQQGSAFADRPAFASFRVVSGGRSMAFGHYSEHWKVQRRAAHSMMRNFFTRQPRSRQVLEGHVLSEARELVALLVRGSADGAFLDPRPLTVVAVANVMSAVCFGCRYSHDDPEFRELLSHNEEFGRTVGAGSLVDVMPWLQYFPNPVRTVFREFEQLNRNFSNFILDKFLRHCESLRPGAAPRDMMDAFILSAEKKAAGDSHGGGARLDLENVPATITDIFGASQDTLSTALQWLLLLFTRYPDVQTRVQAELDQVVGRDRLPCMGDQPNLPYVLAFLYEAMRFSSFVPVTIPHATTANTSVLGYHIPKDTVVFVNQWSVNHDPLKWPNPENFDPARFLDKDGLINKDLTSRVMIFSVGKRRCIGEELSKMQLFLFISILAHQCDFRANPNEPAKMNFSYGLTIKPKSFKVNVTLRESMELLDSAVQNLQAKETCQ
From the text: Recent immunohistochemical analysis of P4501B1 protein in a variety of solid tumours identified tumour-specific enzyme expression (Murray et al, 1998). This provides a mechanism of resistance to currently used anticancer agents, as well as, an approach for targeted prodrug therapy. 7-ethoxyresorufin deethylase activity (EROD) was used to define interactions with cytochrome 1B1 (CYP1B1). 7-Ethoxyresorufin is a known substrate for P4501B1. […] For this purpose, inhibition constants (Ki) have been calculated using in vitro kinetics from CYP1B1-mediated EROD activity. EROD activity and assay has been described previously by various authors (Lubet et al., 1985, Arch. Biochem. Biophys. 238: pp 43-48; Gentest Corporation, 6 Henshaw St., Woburn, Mass. 01801 USA, data sheet given with CYP1B1, catalogue number P220). 7-Ethoxyresorufin is enzymatically deethylated to a product called resorufin. The appearance of resorufin was monitored by a fluorescence detector set at 550 nm and 582 nm (excitation and emission wavelengths). […] Incubations contained: phosphate buffer at pH 7.4, 7-ethoxyresorufin, CYP1B1 Supersomes from Gentest Co (catalogue number P220) and nicotine adenine dinucleotide phosphate (NADP) as cofactor.
The metabolism of anti-cancer drugs by CYP1B1 was studied using an inhibition of EROD assay. […] Ki values were determined by the Dixon's replots: see Table 2.

O=c1cc(-c2ccccc2)oc2c1ccc1ccccc12 [α-naphthoflavone]
Inhibition Type: non-competitive
